In US9387135B2, “Absorbent article” (UNICHARM CORPORATION, priority 2012, dated 2016) one finds Water solubility data, which are given here for 2 substances.

On this data set, the source says: The term “solubility” used herein in regard to water solubility includes cases where the sample completely dissolves in deionized water to form a homogeneous mixture, and cases where the sample is completely emulsified. Here, “completely” means that no mass of the sample remains in the deionized water.

As for “Polyoxybutylene polyoxypropylene glycol [UNIOL PB700]”, the Water solubility is <0.05 g.

In the case of “Polyoxyethylenepolyoxypropylene pentaerythritol ether [UNILUBE 5TP-300KB]”, the Water solubility entry is given as “less than 0.05 g”.
